The results in this text go back to ChEMBL document CHEMBL2034932, “2-Anilino-4-(benzimidazol-2-yl)pyrimidines--a multikinase inhibitor scaffold with antiproliferative activity toward cancer cell lines” (Eur J Med Chem, 2012).

Chains of the proteins cited; added tags and fusions are not shown. Lines headed by an entry give the natural chain unless they say otherwise; changes in a name come on top.
UniProt P53350, whole entry: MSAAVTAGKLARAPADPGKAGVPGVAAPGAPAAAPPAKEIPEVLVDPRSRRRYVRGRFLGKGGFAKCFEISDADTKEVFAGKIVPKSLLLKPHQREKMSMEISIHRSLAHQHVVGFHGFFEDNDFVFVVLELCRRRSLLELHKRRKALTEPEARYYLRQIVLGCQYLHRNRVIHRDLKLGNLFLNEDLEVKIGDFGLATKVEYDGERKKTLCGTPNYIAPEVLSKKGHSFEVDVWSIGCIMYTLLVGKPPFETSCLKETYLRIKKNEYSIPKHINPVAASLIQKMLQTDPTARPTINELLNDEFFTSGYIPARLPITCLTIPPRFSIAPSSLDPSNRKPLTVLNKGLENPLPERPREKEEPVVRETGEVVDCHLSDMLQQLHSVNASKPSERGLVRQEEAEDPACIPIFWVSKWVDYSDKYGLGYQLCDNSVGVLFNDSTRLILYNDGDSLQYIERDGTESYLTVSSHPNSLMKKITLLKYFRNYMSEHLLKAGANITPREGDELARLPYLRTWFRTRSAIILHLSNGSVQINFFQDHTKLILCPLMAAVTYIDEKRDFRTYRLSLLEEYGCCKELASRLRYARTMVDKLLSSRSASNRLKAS
UniProt P31749: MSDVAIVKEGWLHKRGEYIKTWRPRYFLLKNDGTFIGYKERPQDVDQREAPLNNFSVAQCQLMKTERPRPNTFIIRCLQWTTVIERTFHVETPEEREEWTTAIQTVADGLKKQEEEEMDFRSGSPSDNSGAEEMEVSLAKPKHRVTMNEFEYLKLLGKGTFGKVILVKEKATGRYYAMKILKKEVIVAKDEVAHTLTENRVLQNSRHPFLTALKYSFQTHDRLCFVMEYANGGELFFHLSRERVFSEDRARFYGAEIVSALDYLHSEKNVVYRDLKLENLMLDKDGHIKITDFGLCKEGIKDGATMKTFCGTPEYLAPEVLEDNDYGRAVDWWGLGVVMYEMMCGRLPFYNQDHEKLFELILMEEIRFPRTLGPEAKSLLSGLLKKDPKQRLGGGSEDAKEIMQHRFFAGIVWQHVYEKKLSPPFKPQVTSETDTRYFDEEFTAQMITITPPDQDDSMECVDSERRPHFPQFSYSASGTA

Assay [1] addresses Serine/threonine-protein kinase PLK1 (Homo sapiens, UniProt P53350). Put plainly: Inhibition of recombinant PLK1 using RBERCHKtide as substrate assessed as inhibition of [33P]Phosphate incorporation into substrate after 80 mins by scintillation counting.
Assay [2] addresses RAC-alpha serine/threonine-protein kinase (Homo sapiens, UniProt P31749). Put plainly: Inhibition of recombinant AKT1 using GSK3 as substrate assessed as inhibition of [33P]Phosphate incorporation into substrate after 80 mins by scintillation counting.

With `Cc1ccc(Nc2nccc(-c3nc4ccccc4n3C)n2)cc1`, the IC50 in assay [1] and in assay [2] was more than 100 µM each time.
